PubChem BioAssay AID504437 (Emory University Molecular Libraries Screening Center, 2011)
The list shows a part of the results, in another mix than the full data. Activity calls are given as the source filed them.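 Rule for the calls: active = mean of three repeat readings of reporter signal inhibition above a set limit (cut at about 70% in these data); inactive = the rest.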

Experiment: CHOP promoter reporter blockers, replicate testing – cell-based, confirmation (AID 504437);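 note: 0% = tunicamycin plus vehicle and 100% = wells lacking tunicamycin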
Details: CHO-CHOP promoter luciferase reporter, tunicamycin-induced, luminescence; at 10 µM; active compounds read high

SMILES	inhibition
CCc1nc2c(n1)c1c(non1O)c1c2no[n+]1[O-]	inactive: 65%
